Measured values published in ChEMBL document CHEMBL5579880, “Rational Design of a Novel 6H-Benzo[c]chromen Series as Selective PI3Kα Inhibitors” (J Med Chem, 2024).

The chains behind the UniProt entries cited, without tags or fusion partners. Where a name states a change or a piece, a line headed by the entry shows the natural chain unless it says otherwise.
UniProt P48736: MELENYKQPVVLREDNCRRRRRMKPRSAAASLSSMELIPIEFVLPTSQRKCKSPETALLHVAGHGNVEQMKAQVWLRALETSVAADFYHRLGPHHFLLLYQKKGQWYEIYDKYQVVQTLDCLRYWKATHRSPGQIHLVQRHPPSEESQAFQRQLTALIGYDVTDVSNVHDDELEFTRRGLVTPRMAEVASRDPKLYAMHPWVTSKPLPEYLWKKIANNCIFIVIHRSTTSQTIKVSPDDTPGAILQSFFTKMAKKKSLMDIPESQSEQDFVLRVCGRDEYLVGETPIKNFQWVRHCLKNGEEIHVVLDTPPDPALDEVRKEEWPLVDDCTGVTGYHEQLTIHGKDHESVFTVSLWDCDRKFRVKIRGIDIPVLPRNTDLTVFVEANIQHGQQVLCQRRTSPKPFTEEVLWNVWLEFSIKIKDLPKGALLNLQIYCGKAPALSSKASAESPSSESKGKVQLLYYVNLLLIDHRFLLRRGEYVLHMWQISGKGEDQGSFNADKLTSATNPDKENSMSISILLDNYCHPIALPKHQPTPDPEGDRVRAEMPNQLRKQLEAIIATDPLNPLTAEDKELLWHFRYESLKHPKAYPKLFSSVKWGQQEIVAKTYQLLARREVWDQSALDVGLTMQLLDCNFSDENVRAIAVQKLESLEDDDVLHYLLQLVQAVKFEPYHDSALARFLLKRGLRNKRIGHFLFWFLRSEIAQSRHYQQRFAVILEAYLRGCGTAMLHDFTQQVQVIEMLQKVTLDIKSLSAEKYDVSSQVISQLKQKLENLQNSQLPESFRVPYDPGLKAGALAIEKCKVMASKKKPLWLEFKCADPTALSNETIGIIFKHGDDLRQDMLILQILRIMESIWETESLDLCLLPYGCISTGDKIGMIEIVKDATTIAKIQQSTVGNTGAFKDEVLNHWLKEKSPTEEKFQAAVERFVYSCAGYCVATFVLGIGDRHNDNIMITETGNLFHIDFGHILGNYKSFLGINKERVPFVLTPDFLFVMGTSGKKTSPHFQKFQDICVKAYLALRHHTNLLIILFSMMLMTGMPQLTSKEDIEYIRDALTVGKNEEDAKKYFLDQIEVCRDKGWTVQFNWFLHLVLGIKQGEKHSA
UniProt P42338: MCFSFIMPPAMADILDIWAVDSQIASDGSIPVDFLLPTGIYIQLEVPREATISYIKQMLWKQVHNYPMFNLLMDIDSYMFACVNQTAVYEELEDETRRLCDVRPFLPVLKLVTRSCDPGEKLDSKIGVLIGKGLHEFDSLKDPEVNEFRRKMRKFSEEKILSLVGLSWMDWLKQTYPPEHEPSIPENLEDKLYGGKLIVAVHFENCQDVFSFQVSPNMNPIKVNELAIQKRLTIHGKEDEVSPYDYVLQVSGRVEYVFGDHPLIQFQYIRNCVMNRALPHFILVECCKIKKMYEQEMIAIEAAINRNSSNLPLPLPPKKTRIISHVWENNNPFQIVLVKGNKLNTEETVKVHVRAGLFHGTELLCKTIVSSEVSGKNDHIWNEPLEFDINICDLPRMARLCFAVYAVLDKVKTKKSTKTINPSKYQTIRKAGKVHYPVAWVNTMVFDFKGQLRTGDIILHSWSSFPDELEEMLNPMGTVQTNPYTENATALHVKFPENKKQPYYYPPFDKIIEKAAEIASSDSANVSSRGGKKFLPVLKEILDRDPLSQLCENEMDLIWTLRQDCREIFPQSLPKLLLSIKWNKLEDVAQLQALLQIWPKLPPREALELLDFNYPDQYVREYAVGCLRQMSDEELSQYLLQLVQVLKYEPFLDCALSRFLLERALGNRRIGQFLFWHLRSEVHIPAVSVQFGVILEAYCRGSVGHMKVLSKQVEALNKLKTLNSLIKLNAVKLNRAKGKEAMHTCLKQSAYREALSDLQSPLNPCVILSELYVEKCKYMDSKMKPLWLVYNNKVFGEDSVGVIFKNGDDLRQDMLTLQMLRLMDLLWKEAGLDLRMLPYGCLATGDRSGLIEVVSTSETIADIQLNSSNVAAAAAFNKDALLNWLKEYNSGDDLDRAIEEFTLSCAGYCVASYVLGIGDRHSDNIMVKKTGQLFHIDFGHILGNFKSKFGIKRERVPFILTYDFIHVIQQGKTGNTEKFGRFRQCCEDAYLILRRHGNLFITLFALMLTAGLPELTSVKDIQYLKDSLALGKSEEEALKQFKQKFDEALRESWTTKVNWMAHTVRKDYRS
UniProt P42336, whole entry: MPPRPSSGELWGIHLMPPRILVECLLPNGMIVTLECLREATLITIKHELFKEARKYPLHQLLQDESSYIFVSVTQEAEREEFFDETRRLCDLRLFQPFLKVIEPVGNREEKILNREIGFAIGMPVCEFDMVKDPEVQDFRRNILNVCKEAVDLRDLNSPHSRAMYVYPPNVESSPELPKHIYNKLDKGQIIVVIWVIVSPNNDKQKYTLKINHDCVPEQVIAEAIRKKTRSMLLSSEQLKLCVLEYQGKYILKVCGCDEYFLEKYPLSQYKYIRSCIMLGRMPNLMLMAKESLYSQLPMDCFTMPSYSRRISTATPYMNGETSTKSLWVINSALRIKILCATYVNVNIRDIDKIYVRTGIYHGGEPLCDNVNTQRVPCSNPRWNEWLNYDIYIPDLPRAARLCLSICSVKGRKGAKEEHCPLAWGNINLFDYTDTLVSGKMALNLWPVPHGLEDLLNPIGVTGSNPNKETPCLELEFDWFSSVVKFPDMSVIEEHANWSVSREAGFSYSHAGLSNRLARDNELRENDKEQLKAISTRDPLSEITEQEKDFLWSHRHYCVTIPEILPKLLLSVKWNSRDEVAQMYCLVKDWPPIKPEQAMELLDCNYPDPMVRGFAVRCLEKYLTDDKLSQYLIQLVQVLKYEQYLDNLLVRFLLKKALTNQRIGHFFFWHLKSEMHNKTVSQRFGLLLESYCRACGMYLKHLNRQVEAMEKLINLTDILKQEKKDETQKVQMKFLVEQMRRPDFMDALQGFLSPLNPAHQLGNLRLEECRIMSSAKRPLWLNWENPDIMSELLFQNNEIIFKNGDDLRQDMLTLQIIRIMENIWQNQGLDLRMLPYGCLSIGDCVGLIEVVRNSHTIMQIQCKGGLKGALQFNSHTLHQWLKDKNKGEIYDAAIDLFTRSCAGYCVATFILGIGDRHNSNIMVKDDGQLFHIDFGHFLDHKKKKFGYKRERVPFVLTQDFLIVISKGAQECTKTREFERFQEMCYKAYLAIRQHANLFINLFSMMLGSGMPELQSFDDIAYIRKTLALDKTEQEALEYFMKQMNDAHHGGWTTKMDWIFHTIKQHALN

Key:
Settings in all cases: dose 100.0 nM, time 60.0 min
[1] = biological target: Phosphatidylinositol 4,5-bisphosphate 3-kinase catalytic subunit gamma isoform (Homo sapiens, UniProt P48736)
[2] = biological target: Phosphatidylinositol 4,5-bisphosphate 3-kinase catalytic subunit beta isoform (Homo sapiens, UniProt P42338)
[3] = biological target: T1, Phosphatidylinositol 4,5-bisphosphate 3-kinase catalytic subunit delta isoform (Homo sapiens) (UniProt O00329)
T1 sequence (whole entry): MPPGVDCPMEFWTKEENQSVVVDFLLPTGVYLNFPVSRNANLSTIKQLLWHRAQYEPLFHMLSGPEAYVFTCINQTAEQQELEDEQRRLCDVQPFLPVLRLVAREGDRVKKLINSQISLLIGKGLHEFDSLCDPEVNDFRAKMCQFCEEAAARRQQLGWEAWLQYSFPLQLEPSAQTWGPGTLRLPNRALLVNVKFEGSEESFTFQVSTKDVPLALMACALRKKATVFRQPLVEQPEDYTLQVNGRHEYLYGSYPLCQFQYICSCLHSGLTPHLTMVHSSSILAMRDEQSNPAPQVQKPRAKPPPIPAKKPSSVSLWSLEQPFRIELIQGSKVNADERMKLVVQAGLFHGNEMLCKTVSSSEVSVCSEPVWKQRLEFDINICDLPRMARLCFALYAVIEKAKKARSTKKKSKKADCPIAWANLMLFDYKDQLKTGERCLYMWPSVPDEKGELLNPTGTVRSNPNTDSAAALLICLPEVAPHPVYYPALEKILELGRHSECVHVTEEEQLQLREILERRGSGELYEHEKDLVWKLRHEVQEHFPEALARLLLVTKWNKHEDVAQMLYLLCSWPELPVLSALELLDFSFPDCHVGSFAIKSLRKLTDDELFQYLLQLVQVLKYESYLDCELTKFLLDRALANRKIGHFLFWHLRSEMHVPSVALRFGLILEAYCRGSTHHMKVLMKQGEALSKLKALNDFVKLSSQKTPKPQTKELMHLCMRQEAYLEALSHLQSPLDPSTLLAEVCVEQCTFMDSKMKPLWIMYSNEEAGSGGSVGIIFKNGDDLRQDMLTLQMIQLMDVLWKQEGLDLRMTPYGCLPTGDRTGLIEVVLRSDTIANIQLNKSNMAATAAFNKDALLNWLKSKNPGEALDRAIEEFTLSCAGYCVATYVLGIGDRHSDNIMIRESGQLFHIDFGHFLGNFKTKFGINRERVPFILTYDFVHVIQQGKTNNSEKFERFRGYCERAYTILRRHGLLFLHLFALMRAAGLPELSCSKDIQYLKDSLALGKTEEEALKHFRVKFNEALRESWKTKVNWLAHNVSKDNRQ

[4] = biological target: Phosphatidylinositol 4,5-bisphosphate 3-kinase catalytic subunit alpha isoform (Homo sapiens) (UniProt P42336)

Structure (SMILES)	inhibition [1]	inhibition [2]	inhibition [3]	inhibition [4]
C[C@H](Oc1ccc2c(c1)OCc1ccc(-c3cn[nH]c3)cc1-2)C(N)=O	19.5%	-9.1%	22.7%	
C[C@H](Oc1ccc2c(c1)OCc1ccc(-c3ccccn3)cc1-2)C(N)=O			-4.9%	45.8%
C[C@H](Oc1ccc2c(c1)OCc1ccc(-c3cccnc3)cc1-2)C(N)=O		-4.9%	0.7%	16.2%
NC(=O)COc1ccc2c(c1)OCc1ccc(-c3cc[nH]n3)cc1-2			12.8%	34.9%
C[C@H](Oc1ccc2c(c1)OCc1ccc(-c3ccncn3)cc1-2)C(N)=O			19.9%	
C[C@H](Oc1ccc2c(c1)OCc1ccc(-c3ccn(C)n3)cc1-2)C(N)=O	18.3%		11.1%	45.8%
C[C@H](Oc1ccc2c(c1)OCc1ccc(-c3ncccn3)cc1-2)C(N)=O	4%		6%	
C[C@H](Oc1ccc2c(c1)OCc1ccc(-c3ccncc3)cc1-2)C(N)=O	17.9%		38.4%	
C[C@@H](Oc1ccc2c(c1)OCc1ccc(-c3cc[nH]n3)cc1-2)C(N)=O	18.4%		23%	
C[C@H](Oc1ccc2c(c1)OCc1ccc(-c3cc[nH]n3)cc1-2)C(N)=O	27.3%	-3.5%	20.4%	
C[C@H](Oc1ccc2c(c1)OCc1ccc(-c3ncnn3C)cc1-2)C(N)=O	10.6%		27%	
CC(C)n1nccc1-c1ccc2c(c1)-c1ccc(O[C@@H](C)C(N)=O)cc1OC2	31.9%		3.6%	24.8%
